# Measurements reported in US7098372B1, “Pharmaceutical compositions and methods of using secreted frizzled related protein” (Wyeth, priority 1999, dated 2006).
# B1: bone morphogenetic protein (BMP)-2: bone morphogenetic protein (BMP)-2 (protein, UniProt P12643 283-396, looked up)
# Bone morphogenetic protein 2: QAKHKQRKRLKSSCKRHPLYVDFSDVGWNDWIVAPPGYHAFYCHGECPFPLADHLNSTNHAIVQTLVNSVNSKIPKACCVPTELSAISMLYLDENEKVVLKNYQDMVVEGCGCR
# System: hOB SFRP mRNA
# Assay: hOB SFRP mRNA levels after treatment with various agents (method not given)
# Type: cell-based, human
# Settings: various hOB cell lines
# Excerpt: In addition to PGE2, treatment of either the hOB-03-C5 cells or the hOB-03-CE6 cells with interleukin (IL)-1β, 9-cis-retinoic acid or all-trans-retinoic acid also increases hOB SFRP mRNA levels. On the other hand, as with TGF-β1, treatment of various hOB cell lines with PTH, bone morphogenetic protein (BMP)-2, insulin-like growth factor (IGF)-I, 17β-estradiol (17β-E2), vitamin D3 (VD3), dexamethasone (Dex), or fetal bovine serum (FBS) suppresses hOB SFRP message expression. Overall, there is a good (albeit imperfect) correlation between the abilities of these various agents to either increase or decrease hOB SFRP expression, and their ability to either enhance or suppress osteoblast/osteocyte apoptosis (see for example Manolagas 2000 Endocrine Reviews 21: 115–137).
molecule,measurement,value
B1,effect on hOB SFRP message expression,suppresses
